Laboratory results taken from patent publication US20240368664A1, “LIVE YEAST BIOSENSORS AND METHODS OF USE THEREOF” (priority 2021, published 2024).
No end group written: not given here.

Amino acid sequences for entries named in this document (tags omitted). A change or cut given only in a name is not applied to a line headed by its entry.
UniProt D6VTK4: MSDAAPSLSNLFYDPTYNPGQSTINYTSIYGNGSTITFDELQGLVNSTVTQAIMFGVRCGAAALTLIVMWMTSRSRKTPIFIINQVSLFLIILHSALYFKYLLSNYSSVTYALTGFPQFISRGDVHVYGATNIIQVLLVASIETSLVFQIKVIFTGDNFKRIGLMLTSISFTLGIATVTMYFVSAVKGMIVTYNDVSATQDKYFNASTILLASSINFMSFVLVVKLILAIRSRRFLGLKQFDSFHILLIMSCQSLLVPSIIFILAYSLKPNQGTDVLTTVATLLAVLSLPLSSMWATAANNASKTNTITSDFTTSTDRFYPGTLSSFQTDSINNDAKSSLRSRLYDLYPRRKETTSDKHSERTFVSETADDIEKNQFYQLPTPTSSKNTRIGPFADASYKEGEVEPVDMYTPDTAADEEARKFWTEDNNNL

Columns and labels:
CaSte2 = CaSte2 (yTC384), no protease, Hill function best-fit ± standard error; for LogEC50: log of EC50; for Bottom / Top: ymTurquoise2 fluorescence
[1] = test system: CaSte2 with protease CaBar1; settings: CaSte2 + CaBar1 (yBB02), Hill function best-fit ± standard error; for LogEC50: log of apparent EC50; for Bottom / Top: ymTurquoise2 fluorescence
ScSte2 = ScSte2 (Saccharomyces cerevisiae, UniProt D6VTK4); test: ScSte2 biosensor dose-response, ymTurquoise2 readout, no protease (incl. ScPep alanine scan, yTC391); type: cell-based; settings: log of EC50, Hill function best-fit ± standard error

Sequence: GFRLTNFGYFEAA [12A13A]
- LogEC50 (CaSte2): −4.8 ± 0.1 M
- Bottom (CaSte2): 4.9 ± 0.5 A.U.
- Top (CaSte2): 170 ± 10 A.U.
- LogEC50 [1]: −4.5 ± 0.1 M
- Bottom [1]: 5.6 ± 0.5 A.U.

Sequence: WHALQLKPGQPMY [ScPep3A]
- LogEC50 (ScSte2): −7.2 ± 0.1 M

Sequence: WHWLQLKAGQPMY [ScPep8A]
- LogEC50 (ScSte2): −7.1 ± 0.1 M

Sequence: GFALTNFGYFEPG [CaPep3A]
- LogEC50 (CaSte2): −6.9 ± 0.1 M
- Bottom (CaSte2): 5.7 ± 3.4 A.U.
- Top (CaSte2): 460 ± 10 A.U.
- LogEC50 [1]: −6.1 ± 0.1 M
- Bottom [1]: 14 ± 11 A.U.
- Top [1]: 460 ± 10 A.U.

Sequence: AHWLQLKPGQPMY [ScPep1A]
- LogEC50 (ScSte2): −7.4 ± 0.1 M

Sequence: GFRLTNFGAAEPG [9A10A]
- LogEC50 (CaSte2): −4.7 ± 0.1 M
- Bottom (CaSte2): 2.9 ± 2.2 A.U.
- Top (CaSte2): 570 ± 10 A.U.
- LogEC50 [1]: −4.6 ± 0.1 M
- Bottom [1]: 3.5 ± 3.8 A.U.
- Top [1]: 510 ± 20 A.U.

Sequence: WHWLQLAPGQPMY [ScPep7A]
- LogEC50 (ScSte2): −6.9 ± 0.1 M

Sequence: WHWLQLKPGQAMY [ScPep11A]
- LogEC50 (ScSte2): −7.3 ± 0.1 M

Sequence: WHWLQLKPGQPMA [ScPep13A]
- LogEC50 (ScSte2): −7.2 ± 0.1 M

Sequence: WAWLQLKPGQPMY [ScPep2A]
- LogEC50 (ScSte2): −7.1 ± 0.1 M

Sequence: GFRLTNFAYFEPG [CaPep8A]
- LogEC50 (CaSte2): −6.4 ± 0.1 M
- Bottom (CaSte2): 15.3 ± 21 A.U.
- Top (CaSte2): 640 ± 20 A.U.
- LogEC50 [1]: −5.5 ± 0.1 M
- Bottom [1]: 13 ± 8 A.U.
- Top [1]: 460 ± 10 A.U.

Sequence: WHWLQLKPAQPMY [ScPep9A]
- LogEC50 (ScSte2): −6.8 ± 0.1 M

Sequence: GFRLTNFGAFEPG [CaPep9A]
- LogEC50 (CaSte2): −6.6 ± 0.1 M
- Bottom (CaSte2): 17 ± 6 A.U.
- Top (CaSte2): 700 ± 10 A.U.
- LogEC50 [1]: −5.9 ± 0.1 M
- Bottom [1]: 10 ± 7 A.U.
- Top [1]: 480 ± 10 A.U.

Sequence: GFRLTNFGYFEAG [12A]
- LogEC50 (CaSte2): −5.3 ± 0.1 M
- Bottom (CaSte2): −1.7 ± 3.4 A.U.
- Top (CaSte2): 580 ± 10 A.U.
- LogEC50 [1]: −5.0 ± 0.1 M
- Bottom [1]: 2.2 ± 4.8 A.U.
- Top [1]: 540 ± 10 A.U.

Sequence: GFRLTNFGYAEPG [CaPep10A]
- LogEC50 (CaSte2): −4.6 ± 0.1 M
- Bottom (CaSte2): 5.6 ± 1.9 A.U.
- Top (CaSte2): 180 ± 10 A.U.
- LogEC50 [1]: −4.2 ± 0.1 M
- Bottom [1]: 6.0 ± 0.4 A.U.
- Top [1]: 98 ± 1 A.U.

Sequence: WHWLQLKPGAPMY [ScPep10A]
- LogEC50 (ScSte2): −6.9 ± 0.1 M

Sequence: AFRLTNFGYFEPG [CaPep1A]
- LogEC50 (CaSte2): −7.1 ± 0.1 M
- Bottom (CaSte2): 14 ± 7 A.U.
- Top (CaSte2): 460 ± 9 A.U.
- LogEC50 [1]: −6.2 ± 0.1 M
- Bottom [1]: 4.5 ± 14.4 A.U.
- Top [1]: 410 ± 10 A.U.

Sequence: GFRLANFGYFEPG [CaPep5A]
- LogEC50 (CaSte2): −5.2 ± 0.1 M
- Bottom (CaSte2): 3.8 ± 0.3 A.U.
- Top (CaSte2): 15 ± 0.5 A.U.
- LogEC50 [1]: −4.9 ± 0.1 M
- Bottom [1]: 6.4 ± 0.2 A.U.
- Top [1]: 13 ± 1 A.U.

Sequence: GARLTNFGYFEPG [CaPep2A]
- LogEC50 (CaSte2): −7.4 ± 0.1 M
- Bottom (CaSte2): 0.97 ± 10 A.U.
- Top (CaSte2): 460 ± 20 A.U.

Sequence: WHWLALKPGQPMY [ScPep5A]
- LogEC50 (ScSte2): −7.3 ± 0.1 M

Sequence: GFRLTNAGYFEPG [7A]
- LogEC50 (CaSte2): −5.5 ± 0.1 M
- Bottom (CaSte2): 3.4 ± 0.2 A.U.
- Top (CaSte2): 34 ± 0.4 A.U.
- LogEC50 [1]: −5.6 ± 0.1 M
- Bottom [1]: 5.1 ± 0.2 A.U.
- Top [1]: 17 ± 1 A.U.

Sequence: WHWLQAKPGQPMY [ScPep6A]
- LogEC50 (ScSte2): −7.1 ± 0.1 M

Sequence: GARLTNFGYFEPA [CaPep2A13A]
- LogEC50 (CaSte2): −7.0 ± 0.1 M
- Bottom (CaSte2): 1.5 ± 6.2 A.U.
- Top (CaSte2): 790 ± 10 A.U.
- LogEC50 [1]: −6.5 ± 0.1 M
- Bottom [1]: −2.4 ± 22.85 A.U.
- Top [1]: 680 ± 20 A.U.

Sequence: GFRATNFGYFEPG [CaPep4A]
- LogEC50 (CaSte2): −6.5 ± 0.1 M
- Bottom (CaSte2): 3.4 ± 4.9 A.U.
- Top (CaSte2): 460 ± 10 A.U.
- LogEC50 [1]: −6.1 ± 0.1 M
- Bottom [1]: 11 ± 8 A.U.
- Top [1]: 410 ± 8.4 A.U.

Sequence: GFRLTAFGYFEPG [CaPep6A]
- LogEC50 (CaSte2): −6.2 ± 0.1 M
- Bottom (CaSte2): 4.7 ± 2.8 A.U.
- Top (CaSte2): 570 ± 10 A.U.
- LogEC50 [1]: −5.9 ± 0.1 M
- Bottom [1]: 0.83 ± 6.2 A.U.
- Top [1]: 450 ± 10 A.U.
